This is an account of results in ChEMBL document CHEMBL5543069, “DW71177: A novel [1,2,4]triazolo[4,3-a]quinoxaline-based potent and BD1-Selective BET inhibitor for the treatment of acute myeloid leukemia” (Eur J Med Chem, 2024).

Some results are limits rather than exact numbers.

The test system of data set [1] is Ty-82. Description: Cytotoxicity against human Ty-82 cells assessed as growth inhibition incubated for 72 hrs by WST-1 assay. To be noted: TY82, 72 h.
In data set [2] the test system is MV4-11. Description: Cytotoxicity against human MV4-11 cells assessed as growth inhibition incubated for 72 hrs by WST-1 assay. The note with it: MV4-11, 72 h. (Tetrazolium assays rely on reduction of a dye to a coloured formazan, in cell work by metabolically active cells.)
For data set [3], the system named is THP-1. Put plainly: Antiproliferative activity against human THP-1 cells assessed as growth inhibition incubated for 72 hrs by WST-1 assay. The note with it: THP-1, 72 h.
In data set [4] the test system is MOLT-4. Put plainly: Antiproliferative activity against human MOLT-4 cells assessed as growth inhibition incubated for 72 hrs by WST-1 assay. The note with it: MOLT-4, 72 h.
Data set [5] deals with K562. Description: Antiproliferative activity against human K562 cells assessed as growth inhibition incubated for 72 hrs by WST-1 assay. The note with it: K562, 72 h.
The test system of data set [6] is Pfeiffer. Description: Antiproliferative activity against human Pfeiffer cells assessed as growth inhibition incubated for 72 hrs by WST-1 assay.
For data set [7], the system named is SUD4. Description: Antiproliferative activity against human SU-DHL-4 cells assessed as growth inhibition incubated for 72 hrs by WST-1 assay. The note with it: SU-DHL-4, 72 h.
For data set [8], the system named is U2932. Description: Antiproliferative activity against human U2932 cells assessed as growth inhibition incubated for 72 hrs by WST-1 assay. To be noted: U2932, 72 h.
In data set [9] the test system is Daudi. Put plainly: Antiproliferative activity against human Daudi cells assessed as growth inhibition incubated for 72 hrs by WST-1 assay.
In data set [10] the test system is Raji. Put plainly: Antiproliferative activity against human Raji cells assessed as growth inhibition incubated for 72 hrs by WST-1 assay.
Data set [11] has as its system NCI-H1666. Description: Antiproliferative activity against human NCI-H1666 cells assessed as growth inhibition incubated for 72 hrs by WST-1 assay. To be noted: NCI-H1666, 72 h.
The subject of data set [12] is NCI-H1975. Put plainly: Antiproliferative activity against human NCI-H1975 cells assessed as growth inhibition incubated for 72 hrs by WST-1 assay. The note with it: NCI-H1975, 72 h.
Data set [13] in a line: Antiproliferative activity against human SNU-2535 cells assessed as growth inhibition incubated for 72 hrs by WST-1 assay. The note with it: SNU-2535, 72 h.
Data set [14] deals with LS-1034. Description: Antiproliferative activity against human LS1034 cells assessed as growth inhibition incubated for 72 hrs by WST-1 assay. To be noted: LS-1034, 72 h.
Data set [15] has as its system T-24. Put plainly: Antiproliferative activity against human T24 cells assessed as growth inhibition incubated for 72 hrs by WST-1 assay. The note with it: T-24, 72 h.
Data set [16] relates to KU-19-19. Description: Antiproliferative activity against human KU-19-19 cells assessed as growth inhibition incubated for 72 hrs by WST-1 assay. The note with it: KU-19-19, 72 h.
The nature of data set [17]: in vivo. To be noted: rat, po, 20 mg/kg.
Data set [18] in a line: in vivo. To be noted: rat, po, 20 mg/kg. The source holds these as a separate data set.
The nature of data set [19]: in vivo. To be noted: rat, po, 20 mg/kg. The source holds these as a separate data set.
Data set [20] is described as follows: in vivo. The note with it: rat, po, 20 mg/kg. This is another data set of the same source.
Data set [21] is described as follows: in vivo. The note with it: rat, po, 20 mg/kg. The source holds these as a separate data set.

`Cc1nnc2c(NCCCNC(=O)OC(C)(C)C)nc3ccccc3n12`: in data set [1], the GI50 came to 3.5 µM.
Same read-out and setting: for `Cc1nnc2c(NCCCCCNC(=O)OC(C)(C)C)nc3ccccc3n12` the value was 5.2 µM.
For the compound `COc1ccc2c(c1)nc(NCCCCNC(=O)CC(C)C)c1nnc(C)n12`, the concentration for 50% growth inhibition (GI50) is 0.091 µM in data set [1]; 0.05 µM in [2]; 0.05 µM in data set [3]; above 10 µM in [4]; above 10 µM in data set [5]; 0.48 µM in data set [6]. The GI50 in data set [7] was 3.3 µM; in data set [8], above 10 µM; in data set [9], 2.4 µM; in [10], above 10 µM; in data set [11], above 10 µM; in [12], above 10 µM. Further, the GI50 in [13] is above 10 µM; in data set [14] it was above 10 µM; in data set [15], 5 µM; in data set [16], 9.1 µM. Further, the time of peak concentration (Tmax) in data set [17] is 30 min. The highest level in data set [18] (Cmax) was 3050 ng/mL. Further, in data set [19], the half-life is 78 min. This compound registered an AUC(0-t) in data set [20] of 3610 ng·h/mL. Moreover, the AUC(0-inf) in [21] is 3870 ng·h/mL.
On to `Cc1nnc2c(NCCNC(=O)OC(C)(C)C)nc3ccccc3n12`, for which the GI50 in data set [1] is 5 µM.

Broadly, the GI50 is the concentration that inhibits growth by half. Usually Tmax stands for the time from dosing to the highest level. Usually Cmax stands for the peak of the concentration-time curve. Usually half-life stands for the time needed for the level to fall by half in the phase considered. A high value points to slow loss. The AUC(0-t) is the area under the concentration-time curve up to a stated or last time point. A lower AUC(0-t) goes with less exposure. Usually AUC(0-inf) stands for the area under the concentration-time curve extrapolated to infinity. A low value points to low exposure.
